Test system: patients coinfected with Babesia microti and Borrelia burgdorferi

Question: Which adverse effects (first few weeks of atovaquone therapy) does the source give for `O=C1C(O)=C([C@H]2CC[C@H](c3ccc(Cl)cc3)CC2)C(=O)c2ccccc21` [atovaquone] here?
Answer: no adverse effects noted other than mild worsening of symptoms

Question: And the “patients who stopped treatment at 9 weeks, feeling no improvement” value (in vivo)?
Answer: 1 patient

Question: And the “patients with complete resolution of longstanding symptoms” value (in vivo)?
Answer: 5 patients
